{"source": "DBAASP", "key": {"[1]": {"tested_on": "Escherichia coli K-12", "test": "≥ marks a high value that may be exact or a test limit, other limits are often not marked, values filed in µg/mL are converted to µM"}, "[2]": {"tested_on": "Staphylococcus aureus ATCC 12600", "test": "≥ marks a high value that may be exact or a test limit, other limits are often not marked, values filed in µg/mL are converted to µM"}}}
{"smiles": "CC[C@H](C)[C@H](NC(=O)[C@H](C)NC(=O)CNC(=O)[C@@H](NC(=O)[C@@H](NC(=O)[C@@H](NC(=O)CNC(=O)[C@@H](NC(=O)[C@@H](NC(=O)[C@@H](NC(=O)[C@H](C)NC(=O)[C@H](Cc1ccccc1)NC(=O)[C@H](CC(C)C)NC(=O)[C@H](CCCN=C(N)N)NC(=O)[C@H](CCCN=C(N)N)NC(=O)[C@H](CC(C)C)NC(=O)CNC(=O)CNC(=O)[C@@H](NC(=O)[C@@H](N)Cc1ccccc1)[C@@H](C)CC)[C@@H](C)O)C(C)C)C(C)C)[C@@H](C)O)C(C)C)C(C)C)C(=O)N[C@@H](CC(N)=O)C(=O)N[C@@H](CCCCN)C(=O)N[C@@H](CC(C)C)C(=O)NCC(=O)NCC(=O)NCC(=O)O", "note": "[FIGGLRRLFATVVGTVVGAINKLGGG]", "values": [{"measurement": "MIC", "setting": "[1]", "result": 4, "unit": "µM"}, {"measurement": "MIC", "setting": "[2]", "result": "≥ 64", "unit": "µM"}]}
{"smiles": "CC[C@H](C)[C@H](NC(=O)[C@H](CC(C)C)NC(=O)[C@H](C)NC(=O)[C@@H]1CCCN1C(=O)[C@H](CC(C)C)NC(=O)CNC(=O)[C@@H](NC(=O)[C@@H](NC(=O)[C@H](CC(C)C)NC(=O)[C@@H](NC(=O)[C@H](CCCCN)NC(=O)[C@H](CCCCN)NC(=O)[C@H](C)NC(=O)[C@H](C)NC(=O)[C@H](CO)NC(=O)[C@@H](NC(=O)[C@H](CC(C)C)NC(=O)[C@H](CCCCN)NC(=O)[C@H](CCCCN)NC(=O)[C@@H](NC(=O)[C@H](Cc1ccccc1)NC(=O)[C@H](CCCCN)NC(=O)[C@H](CCCCN)NC(=O)[C@H](Cc1c[nH]c2ccccc12)NC(=O)[C@@H](N)CCCCN)[C@@H](C)CC)[C@@H](C)O)C(C)C)[C@@H](C)O)[C@@H](C)O)C(=O)N[C@@H](CO)C(=O)O", "note": "[KWKKFIKKLTSAAKKVLTTGLPALIS]", "values": [{"measurement": "MIC", "setting": "[1]", "result": 2, "unit": "µM"}, {"measurement": "MIC", "setting": "[2]", "result": "≥ 32", "unit": "µM"}]}
{"smiles": "CC(C)C[C@H](NC(=O)[C@H](Cc1c[nH]c2ccccc12)NC(=O)[C@H](C)NC(=O)CNC(=O)[C@H](Cc1c[nH]c2ccccc12)NC(=O)[C@H](CC(N)=O)NC(=O)[C@@H](N)CC(C)C)C(=O)N[C@@H](CCCCN)C(=O)N[C@@H](Cc1cnc[nH]1)C(=O)N[C@@H](Cc1c[nH]c2ccccc12)C(=O)N[C@@H](Cc1c[nH]c2ccccc12)C(=O)N[C@@H](CCCCN)C(=O)O", "note": "[LNWGAWLKHWWK]", "values": [{"measurement": "MIC", "setting": "[2]", "result": "≥ 64", "unit": "µM"}]}
